Values of other authors, collected in US20180373846A1, “METHODS AND SYSTEMS FOR ORGANIC SOLUTE SAMPLING OF AQUEOUS AND HETEROGENEOUS ENVIRONMENTS” (University of Maryland, Baltimore, priority 2014, published 2018).

Target: β2AR (Homo sapiens, UniProt P07550)
Details: experimental, from cited references

For `CNC[C@H](O)c1ccc(O)c(O)c1` [Adrenaline(epinephrine)], the ΔGbind is given as −8.60.
